Values of other authors, collected in US6428819B1, “Plant extracts for the preparation of pharmaceutical compositions for the treatment of hepatitis” (priority 1996, dated 2002).

System: hepatitis C
Conditions: in combination with ribavirin

B1: interferon-β: interferon beta given in combination with ribavirin (protein, UniProt P01574 22-187, looked up)
Interferon beta: MSYNLLGFLQRSSNFQCQKLLWQLNGRLEYCLKDRMNFDIPEEIKQLQQFQKEDAALTIYEMLQNIFAIFRQDSSSTGWNETIVENLLANVYHQINHLKTVLEEKLEKEDFTRGKLMSSLHLKRYYGRILHYLKAKEYSHCAWTIVRVEILRNFYFINRLTGYLRN
- patients with sustained responses: one third
